We go through one molecule from patent US20260232815A1, “COPOLYMER-DRUG CONJUGATE FOR TREATMENT OF TUMOURS” (Danmarks Tekniske Universitet, priority 2023, published 2026).

This data set is described as follows: Biodistribution by fluorescence imaging after subcutaneous injection in healthy mice. The note with it: monitored 2 weeks.

As to `C[N+]1=C(C=CC2=CC(=CC=C3N(CCCCCC(=O)NCCCCCC(=O)N4Cc5ccccc5C#Cc5ccccc54)c4ccccc4C3(C)C)CCC2)C(C)(C)c2ccccc21.F[P-](F)(F)(F)(F)F` [DBCO-Cy7], the “fluorescence signal remaining at the injection site over time” value is reported as “most of its signal being gone after 1 week”.
